Reference: PMC2746281 (2009)

Chains of the proteins cited; added tags and fusions are not shown. Lines headed by an entry give the natural chain unless they say otherwise; changes in a name come on top. Residues count along the entry.
UniProt P16234, 24-1089: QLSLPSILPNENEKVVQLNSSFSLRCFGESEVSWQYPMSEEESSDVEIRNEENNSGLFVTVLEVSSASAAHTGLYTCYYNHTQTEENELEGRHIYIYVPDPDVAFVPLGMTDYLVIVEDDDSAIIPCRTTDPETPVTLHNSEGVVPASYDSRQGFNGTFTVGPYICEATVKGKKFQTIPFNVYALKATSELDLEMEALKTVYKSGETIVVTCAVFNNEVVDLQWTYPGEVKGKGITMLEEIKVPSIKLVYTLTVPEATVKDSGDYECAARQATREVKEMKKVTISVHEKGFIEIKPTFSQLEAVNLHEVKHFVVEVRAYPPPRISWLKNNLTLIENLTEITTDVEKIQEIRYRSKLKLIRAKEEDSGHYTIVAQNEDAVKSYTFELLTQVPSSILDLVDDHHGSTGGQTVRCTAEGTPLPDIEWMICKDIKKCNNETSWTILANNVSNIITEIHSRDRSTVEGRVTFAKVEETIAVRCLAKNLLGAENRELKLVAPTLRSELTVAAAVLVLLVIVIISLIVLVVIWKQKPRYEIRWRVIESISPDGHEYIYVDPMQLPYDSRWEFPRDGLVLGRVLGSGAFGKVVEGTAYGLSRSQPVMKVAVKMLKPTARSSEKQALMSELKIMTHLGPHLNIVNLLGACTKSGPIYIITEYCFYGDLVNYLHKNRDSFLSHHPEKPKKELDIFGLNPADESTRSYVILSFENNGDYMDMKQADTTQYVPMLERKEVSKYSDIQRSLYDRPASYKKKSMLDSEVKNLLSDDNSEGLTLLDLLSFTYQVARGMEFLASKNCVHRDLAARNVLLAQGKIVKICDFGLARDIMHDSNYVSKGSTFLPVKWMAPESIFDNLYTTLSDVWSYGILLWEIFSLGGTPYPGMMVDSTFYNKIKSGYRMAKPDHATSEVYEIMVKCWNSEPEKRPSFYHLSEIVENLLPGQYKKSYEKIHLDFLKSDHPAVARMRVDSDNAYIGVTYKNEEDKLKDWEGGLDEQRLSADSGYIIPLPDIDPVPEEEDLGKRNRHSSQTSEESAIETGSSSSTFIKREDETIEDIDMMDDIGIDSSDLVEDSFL
UniProt P00519, 229-512 limits assumed: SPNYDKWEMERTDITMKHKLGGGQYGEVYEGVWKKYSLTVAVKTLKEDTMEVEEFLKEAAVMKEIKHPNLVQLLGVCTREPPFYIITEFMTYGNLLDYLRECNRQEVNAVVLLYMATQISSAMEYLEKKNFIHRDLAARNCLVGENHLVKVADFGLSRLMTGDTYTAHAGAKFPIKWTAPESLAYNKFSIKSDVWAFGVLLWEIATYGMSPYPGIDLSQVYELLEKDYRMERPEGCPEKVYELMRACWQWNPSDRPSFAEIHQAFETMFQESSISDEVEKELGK
UniProt P00519, whole entry: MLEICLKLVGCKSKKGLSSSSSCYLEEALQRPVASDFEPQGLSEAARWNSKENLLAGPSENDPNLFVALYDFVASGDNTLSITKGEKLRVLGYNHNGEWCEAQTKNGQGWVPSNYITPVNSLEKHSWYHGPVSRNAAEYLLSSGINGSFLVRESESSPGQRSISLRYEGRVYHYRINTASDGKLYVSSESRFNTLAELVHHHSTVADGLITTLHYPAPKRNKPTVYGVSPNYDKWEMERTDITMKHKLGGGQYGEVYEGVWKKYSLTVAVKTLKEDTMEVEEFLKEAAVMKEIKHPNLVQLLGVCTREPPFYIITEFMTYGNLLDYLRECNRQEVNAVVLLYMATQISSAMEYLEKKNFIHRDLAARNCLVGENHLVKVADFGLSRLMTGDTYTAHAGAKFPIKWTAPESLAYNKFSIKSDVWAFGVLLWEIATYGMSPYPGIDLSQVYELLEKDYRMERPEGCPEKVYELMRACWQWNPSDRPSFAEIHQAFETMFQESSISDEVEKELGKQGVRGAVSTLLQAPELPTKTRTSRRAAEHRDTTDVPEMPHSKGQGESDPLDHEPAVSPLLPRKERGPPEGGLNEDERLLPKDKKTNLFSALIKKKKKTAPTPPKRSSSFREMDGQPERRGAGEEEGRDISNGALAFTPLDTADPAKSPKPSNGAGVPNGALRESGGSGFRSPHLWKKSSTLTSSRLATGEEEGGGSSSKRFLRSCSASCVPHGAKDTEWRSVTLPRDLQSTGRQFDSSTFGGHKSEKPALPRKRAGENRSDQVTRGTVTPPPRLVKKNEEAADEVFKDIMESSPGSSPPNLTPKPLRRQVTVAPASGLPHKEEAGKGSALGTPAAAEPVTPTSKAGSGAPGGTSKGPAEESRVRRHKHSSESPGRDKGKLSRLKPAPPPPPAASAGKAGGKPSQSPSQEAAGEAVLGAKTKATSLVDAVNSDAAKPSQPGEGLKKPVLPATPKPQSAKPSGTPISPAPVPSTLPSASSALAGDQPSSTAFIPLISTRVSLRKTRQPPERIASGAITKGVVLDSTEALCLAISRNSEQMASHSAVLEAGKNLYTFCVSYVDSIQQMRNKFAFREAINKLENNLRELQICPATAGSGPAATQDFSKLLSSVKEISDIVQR
UniProt P11274: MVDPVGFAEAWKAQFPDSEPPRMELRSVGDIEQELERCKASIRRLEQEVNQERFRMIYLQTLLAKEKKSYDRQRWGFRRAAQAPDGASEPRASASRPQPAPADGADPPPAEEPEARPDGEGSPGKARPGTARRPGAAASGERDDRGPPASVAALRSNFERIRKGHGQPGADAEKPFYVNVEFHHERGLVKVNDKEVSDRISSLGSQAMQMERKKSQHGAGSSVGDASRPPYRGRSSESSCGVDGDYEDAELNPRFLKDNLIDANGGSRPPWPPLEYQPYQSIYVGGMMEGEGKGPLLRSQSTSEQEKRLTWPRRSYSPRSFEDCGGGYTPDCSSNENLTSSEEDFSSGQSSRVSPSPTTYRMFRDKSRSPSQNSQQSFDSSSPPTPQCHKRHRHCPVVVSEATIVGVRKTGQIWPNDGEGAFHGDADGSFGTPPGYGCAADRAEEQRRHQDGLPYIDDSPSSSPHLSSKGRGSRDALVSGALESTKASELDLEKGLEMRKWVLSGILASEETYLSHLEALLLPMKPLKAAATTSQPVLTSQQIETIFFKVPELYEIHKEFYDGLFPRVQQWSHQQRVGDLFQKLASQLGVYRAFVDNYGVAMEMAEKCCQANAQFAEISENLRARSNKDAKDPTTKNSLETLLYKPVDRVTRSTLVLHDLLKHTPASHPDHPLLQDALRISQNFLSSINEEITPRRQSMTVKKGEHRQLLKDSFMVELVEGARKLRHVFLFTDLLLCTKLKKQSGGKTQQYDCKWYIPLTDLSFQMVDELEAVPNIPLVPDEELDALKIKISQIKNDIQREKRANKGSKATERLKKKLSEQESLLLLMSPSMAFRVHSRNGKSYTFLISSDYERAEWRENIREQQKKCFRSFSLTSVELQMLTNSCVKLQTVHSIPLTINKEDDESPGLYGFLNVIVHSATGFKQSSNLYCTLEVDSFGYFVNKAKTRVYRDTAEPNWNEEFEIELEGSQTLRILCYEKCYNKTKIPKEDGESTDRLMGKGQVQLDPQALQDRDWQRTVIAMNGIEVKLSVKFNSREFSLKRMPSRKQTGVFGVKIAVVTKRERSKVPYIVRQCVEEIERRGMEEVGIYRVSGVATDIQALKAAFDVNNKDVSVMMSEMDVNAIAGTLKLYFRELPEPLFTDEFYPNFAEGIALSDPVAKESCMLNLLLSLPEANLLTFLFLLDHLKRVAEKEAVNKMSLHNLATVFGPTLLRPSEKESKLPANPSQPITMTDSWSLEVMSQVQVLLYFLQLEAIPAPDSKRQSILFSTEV

Key:
PDGFRα = PDGFRα (Homo sapiens, UniProt P16234); assay: Ba/F3 cell proliferation (WST-1), PDGFRα, PDGF-BB-stimulated; assay type: cell-based
BCR-ABL = BCR-ABL (Homo sapiens, UniProt P00519+P11274); assay: Ba/F3 cell proliferation (WST-1), BCR-ABL (ABL1 in Table 1); conditions: read-out: Cell-based assay IC50, ABL1, Ba/F3 cells expressing BCR-ABL
ABL1 = ABL1 (Homo sapiens, UniProt P00519); assay: biochemical

SMILES: CS(=O)(=O)O.CS(=O)(=O)O.Cc1ccc(NC(=O)c2ccc(CN3CCN(C)CC3)cc2)cc1Nc1nc(-c2cccnc2)cs1 [masitinib, 4-(4-methylpiperazin-1-ylmethyl)-N-[4-methyl-3-(4-pyridin-3ylthiazol-2-ylamino)phenyl]benzamide-mesylate methane sulfonic acid salt]
- IC50 (PDGFRα): 300 ± 5 nM
- IC50 (BCR-ABL): 2800 ± 800 nM
- IC50 (ABL1): 1200 ± 340 nM
